{"sequences": {"note": "The chains behind the UniProt entries cited, without tags or fusion partners.", "UniProt P91802, entry or part of it": "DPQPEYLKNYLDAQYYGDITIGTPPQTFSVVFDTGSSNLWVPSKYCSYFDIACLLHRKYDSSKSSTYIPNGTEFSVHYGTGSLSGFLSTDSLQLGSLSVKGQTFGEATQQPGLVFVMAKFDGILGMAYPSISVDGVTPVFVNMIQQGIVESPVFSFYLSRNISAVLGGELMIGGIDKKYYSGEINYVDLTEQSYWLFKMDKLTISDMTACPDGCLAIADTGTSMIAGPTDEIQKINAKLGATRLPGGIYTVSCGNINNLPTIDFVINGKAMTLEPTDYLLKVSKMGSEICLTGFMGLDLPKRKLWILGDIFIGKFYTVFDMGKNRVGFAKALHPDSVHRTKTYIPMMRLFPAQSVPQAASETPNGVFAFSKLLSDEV"}, "source": "paper PMC10481938", "about": "“Discovery of new Schistosoma mansoni aspartyl protease inhibitors by structure-based virtual screening” (Memórias do Instituto Oswaldo Cruz, 2023)", "key": {"[1]": {"target": "recombinant Schistosoma mansoni cathepsin D-like aspartyl protease 1 (SmCD1) (Schistosoma mansoni, UniProt P91802)", "assay": "SmCD1 enzymatic assay (FRET substrate Abz-AIAF/FSRQ-EDDnp)", "format": "biochemical", "details": "BEI = pIC50/MW(kDa), from SmCD1 IC50", "protocol": "SmCD1 cloning, expression and purification - Expression of the recombinant enzyme was previously performed by our group[14] by transfection of the vector with recombinant proSmCD1 gene (proSmCD1r) into culture bottles containing human embryonic kidney (HEK293) cells. After an incubation period of three to five days, the culture medium of the HEK293 cells was collected, filtered, and used for the purification of the recombinant protein. A HisTrap FF column in-tandem with a HiLoad 16/60 Superdex column, connected to an Äkta Xpress system were used for the purification of the protein.\nSmCD1 enzymatic assay - Initially, 2.5 μg of SmCD1 was added to a reaction medium containing 50 mM sodium acetate buffer with 50 mM NaCl at pH 3.5. Next, this medium was incubated with either test compounds (10 µM), pepstatin (1 - 500 µM), as a positive control, or DMSO (0,1%), as negative control, for 10 minutes, at 37 °C. After incubation, to start the reaction, 10 μM of the substrate octapeptide fluorescent (FRET) Abz-AIAF/FSRQ-EDDnp (102023-1, GenOne) was added to the medium. The substrate hydrolysis reaction product was continuously detected (λex = 310 nm and λem = 420 nm), using a Flex Station III microplate reader (Molecular Devices), during the initial 10 min of the reaction. […]"}, "[2]": {"target": "T1, porcine pepsin (Sus scrofa, UniProt P00791)", "T1 construct": "purchased Difco 0151-17 / 215110", "assay": "Specificity assay toward porcine pepsin", "format": "biochemical", "details": "10 μM of compound; average of triplicate of single experiment, CV% in parentheses", "protocol": "SmCD1 enzymatic assay - Initially, 2.5 μg of SmCD1 was added to a reaction medium containing 50 mM sodium acetate buffer with 50 mM NaCl at pH 3.5. […] After incubation, to start the reaction, 10 μM of the substrate octapeptide fluorescent (FRET) Abz-AIAF/FSRQ-EDDnp (102023-1, GenOne) was added to the medium. The substrate hydrolysis reaction product was continuously detected (λex = 310 nm and λem = 420 nm), using a Flex Station III microplate reader (Molecular Devices), during the initial 10 min of the reaction.\nSpecificity assays toward mammalian proteases - For recombinant BtCD and porcine pepsin, the same protocol described above for SmCD1 was followed, except for 10 μg of BtCD or 5 μg of pepsin were added.\nThe IC50 values were determined by fitting SmCD1 activity data into the 4-parameter logistic equation."}}, "data": [{"substance": "pepstatin A [reference compound]", "values": [{"measurement": "Binding efficiency index (BEI)", "setting": "[1]", "result": 11.9}, {"measurement": "Enzymatic activity inhibition (%) Pepsin", "setting": "[2]", "result": "94.9 (22) %"}]}]}
